The results in this text go back to article PMC4387075 (Neuropharmacology, 2015).

Protein sequences, listed by entry. Tags and fused reporters are not part of them. Residues count along the entry.
UniProt P23385, 19-1199: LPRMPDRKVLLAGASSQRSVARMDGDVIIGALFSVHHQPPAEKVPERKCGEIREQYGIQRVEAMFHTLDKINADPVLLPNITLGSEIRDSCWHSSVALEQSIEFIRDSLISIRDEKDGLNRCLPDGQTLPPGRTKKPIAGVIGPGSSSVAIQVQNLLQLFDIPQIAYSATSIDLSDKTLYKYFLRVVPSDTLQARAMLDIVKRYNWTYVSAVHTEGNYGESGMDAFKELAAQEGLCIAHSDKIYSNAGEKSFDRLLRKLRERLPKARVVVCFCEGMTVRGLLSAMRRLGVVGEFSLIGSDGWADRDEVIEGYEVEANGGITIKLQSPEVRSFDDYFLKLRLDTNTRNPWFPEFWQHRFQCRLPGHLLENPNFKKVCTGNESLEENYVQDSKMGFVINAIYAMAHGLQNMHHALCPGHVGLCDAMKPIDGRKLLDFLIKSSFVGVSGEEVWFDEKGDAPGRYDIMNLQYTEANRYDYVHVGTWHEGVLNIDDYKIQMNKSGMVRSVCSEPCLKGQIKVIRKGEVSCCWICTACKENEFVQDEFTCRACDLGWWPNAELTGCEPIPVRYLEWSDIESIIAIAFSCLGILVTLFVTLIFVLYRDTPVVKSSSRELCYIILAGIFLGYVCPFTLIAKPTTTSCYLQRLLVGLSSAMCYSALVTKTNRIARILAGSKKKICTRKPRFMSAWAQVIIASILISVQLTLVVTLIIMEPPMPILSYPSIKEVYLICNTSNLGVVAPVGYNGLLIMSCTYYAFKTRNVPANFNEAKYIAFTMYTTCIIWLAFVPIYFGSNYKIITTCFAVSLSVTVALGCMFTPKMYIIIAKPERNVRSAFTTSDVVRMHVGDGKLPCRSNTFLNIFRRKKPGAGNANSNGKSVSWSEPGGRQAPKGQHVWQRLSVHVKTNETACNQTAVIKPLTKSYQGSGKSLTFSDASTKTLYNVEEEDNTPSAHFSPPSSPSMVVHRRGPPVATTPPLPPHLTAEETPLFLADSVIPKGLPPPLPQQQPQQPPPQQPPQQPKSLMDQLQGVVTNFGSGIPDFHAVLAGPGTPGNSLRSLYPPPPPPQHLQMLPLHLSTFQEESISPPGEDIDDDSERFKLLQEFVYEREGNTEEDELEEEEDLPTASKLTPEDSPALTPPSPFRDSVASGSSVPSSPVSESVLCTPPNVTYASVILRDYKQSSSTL

The term EC50 denotes the concentration needed to bring the measured effect to its halfway point. Read a low EC50 as an effect from little substance.

This assay deals with mGlu1 receptors (Rattus norvegicus, UniProt P23385). The assay can be described thus: PI hydrolysis. In kind it is cell-based.

Compound `N[C@@H](Cn1oc(=O)[nH]c1=O)C(=O)O` [Quisqualate, quisqualate] yielded a 50% effective concentration (EC50) of 440 nM.
